Laboratory results published in patent US20120029075A1, “COMPOSITIONS CONTAINING C1 TO C7 ORGANIC ACID MONOGLYCERIDES AND GLYCEROL, THEIR PREPARATION AND USE AS ANTIBACTERIALS AND ANTI-MOULD AGENTS” (priority 2009, published 2012).

System: E. coli
Experiment: In vitro antibacterial action, appearance of growth in Brain Heart Infusion, pH 5 (Table 5)
Details: for Incubation time and appearance of growth: pH 5, inoculation 10^5, Brain Heart Infusion, 3 replications

Fumaric acid monoglycerides was tested. Which “Incubation time and appearance of growth” value (10000 ppm) did it give?
The value was “+ (+ for 24 hr)”.

And the “Incubation time and appearance of growth” value (20000 ppm)?
Its value is “+ (+ for 24 hr)”.

And the “Incubation time and appearance of growth” value (40000 ppm)?
Its value is “+ (+ for 24 hr)”.

And the “Incubation time and appearance of growth” value (60000 ppm)?
Its value is “no growth”.

What about the “Incubation time and appearance of growth” value (80000 ppm) of the same substance?
The value was “no growth”.

What about the “Incubation time and appearance of growth” value (90000 ppm) of the same substance?
The value was “no growth”.

What about the “Incubation time and appearance of growth” value (100000 ppm) of the same substance?
The value was “no growth”.

What about the “Concentration exhibiting inhibitory potency (no growth) in all three replicates” value (E. coli, tested 10000-100000 ppm) of the same substance?
The value was ≥ 60,000 ppm.
